Data reported in patent publication US20060024264A1, “Antimicrobial copolymers and uses thereof” (priority 2004, published 2006).

Tested on: human red blood cells (RBCs)
Test: Hemolysis assays (HC50)
Assay type: cell-based
Details: polymer concentration at 50% hemolysis; 37° C., 1 hour, TBS buffer
Procedure: Assays for measuring the cytotoxic selectivity for copolymers of the present invention toward bacteria and eukaryotic cells are well known to those of skill in the art. For example, cytotoxic selectivity can be assessed by determining the hemolytic activity of the copolymers. Hemolytic activity assays are performed by measuring the degree of hemolysis of human erythrocytes following incubation in the presence of the copolymer and determining HC50 values. HC50 values represent the concentration of compound that results in 50% hemoglobin release. See, for example, Kuroda, K, and DeGrado, W. F., J. Amer. Chem. Soc. 127:4128-4129 (2005) and Liu, D., and DeGrado, W. F., J. Amer. Chem. Soc. 123:7553-7559 (2001), and references cited therein. See also Javadpour, M. M., et al., J. Med. Chem. 39:3107-3113 (1996).
Hemolysis Assays: Polymer stock solutions and control solutions were prepared by the same procedure as in antimicrobial testing. Freshly drawn human red blood cells (RBCs) were obtained by centrifuging a whole blood and removing plasma and white blood cells. […] Supernatant (30 μL) was diluted with TBS buffer (100 μL), and OD414 of the solution was measured as hemoglobin concentration. […] Percentage of hemolysis (P) was calculated from the equation: P=[OD414(polymer)−OD414(control)]/[OD414(melittin)−OD414(control)] […]

## CC[C@H](C)[C@H](NC(=O)CN)C(=O)NCC(=O)N[C@@H](C)C(=O)N[C@H](C(=O)N[C@@H](CC(C)C)C(=O)N[C@@H](CCCCN)C(=O)N[C@H](C(=O)N[C@@H](CC(C)C)C(=O)N[C@H](C(=O)N[C@H](C(=O)NCC(=O)N[C@@H](CC(C)C)C(=O)N1CCC[C@H]1C(=O)N[C@@H](C)C(=O)N[C@@H](CC(C)C)C(=O)N[C@H](C(=O)N[C@@H](CO)C(=O)N[C@@H](Cc1c[nH]c2ccccc12)C(=O)N[C@H](C(=O)N[C@@H](CCCCN)C(=O)N[C@@H](CCCNC(=N)N)C(=O)N[C@@H](CCCCN)C(=O)N[C@@H](CCCNC(=N)N)C(=O)N[C@@H](CCC(N)=O)C(=O)N[C@@H](CCC(N)=O)C(N)=O)[C@@H](C)CC)[C@@H](C)CC)[C@@H](C)O)[C@@H](C)O)C(C)C)C(C)C [melittin]
  HC50: 1.24 µg/mL
